Test results as given in patent US10975091B2, “Pyridine derivative” (Astellas Pharma Inc., priority 2014, dated 2021).
Structures can show the parent of a compound that is named as a salt.

What follows are compounds tested on water-loaded rats. Conditions: 3 mg/kg oral; water load 30 ml/kg 1 h after administration; urine volume 1 h after water loading; vs vehicle control group.

First: C[C@H]1CC[C@H](Oc2ccnc(C[C@](O)(C(=O)O)[C@@H](N)COc3ccc(F)cn3)c2)CC1 [Example 84]
Second: CCSC[C@H](N)[C@](O)(Cc1cc(O[C@H]2CC[C@H](C)CC2)ccn1)C(=O)O [Example 105, (2R,3R)-3-amino-4-(ethylsulfanyl)-2-hydroxy-2-({4-[(trans-4-methylcyclohexyl)oxy]pyridin-2-yl}methyl)butanoic acid]
The “Inhibition of urination (%)” value of the first is lower: 64% for the first, 98% for the second.

Going from CC(C)C[C@H](N)[C@](O)(Cc1cc(O[C@H](C)Cc2ccccc2)ccn1)C(=O)O [Example 92] to CCCC[C@@H](C)Oc1ccnc(C[C@](O)(C(=O)O)[C@@H](N)CC(C)C)c1 [Example 55], the “Inhibition of urination (%)” value rises from 61% to 91%.

Going from CCSC[C@H](N)[C@](O)(Cc1cc(OCCCC2CC2)ccn1)C(=O)O [Example 143] to N[C@@H](CSCCC1CC1)[C@](O)(Cc1cc(OCCCC2CC2)ccn1)C(=O)O [Example 139], the “Inhibition of urination (%)” value falls from 100% to 90%.

First: CCCCSc1ccnc(C[C@](O)(C(=O)O)[C@@H](N)CC(C)C)c1 [Example 18, (2R,3S)-3-amino-2-{[4-(butylsulphanyl)pyridin-2-yl]methyl}-2-hydroxy-5-methylhexanoic acid]
Second: CC(C)C[C@H](N)[C@](O)(Cc1cc(SCCC2CC2)ccn1)C(=O)O [Example 111]
The “Inhibition of urination (%)” value of the first is lower: 52% for the first, 57% for the second.

First: CC(C)C[C@H](N)[C@](O)(Cc1cc(OCCC2(C)CC2)ccn1)C(=O)O [Example 28]
Second: CC(C)C[C@H](N)[C@](O)(Cc1cc(OCCC2CC2)ccn1)C(=O)O [Example 1, (2R,3S)-3-amino-2-{[4-(2-cyclopropylethoxy)pyridin-2-yl]methyl}-2-hydroxy-5-methylhexanoic acid]
The “Inhibition of urination (%)” value of the first is higher: 92% for the first, 88% for the second.

Going from CC(C)C[C@H](N)[C@](O)(Cc1cc(O[C@H]2CC[C@H](C)CC2)ccn1)C(=O)O (relative stereo) [Example 6, (2R,3S)-3-amino-2-hydroxy-5-methyl-2-({4-[(trans-4-methylcyclohexyl)oxy]pyridin-2-yl}methyl)hexanoic acid dihydrochloride] to CC(C)C[C@H](N)[C@](O)(Cc1cc(S[C@H]2CC[C@H](C)CC2)ccn1)C(=O)O [Example 119], the “Inhibition of urination (%)” value rises from 96% to 97%.

Going from N[C@@H](COCCC1CC1)[C@](O)(Cc1cc(OCCC2CC2)ccn1)C(=O)O [Example 110] to N[C@@H](CCC1CCC1)[C@](O)(Cc1cc(OCCC2CC2)ccn1)C(=O)O [Example 9, (2R,3S)-3-amino-5-cyclobutyl-2-{[4-(2-cyclopropylethoxy)pyridin-2-yl]methyl}-2-hydroxypentanoic acid], the “Inhibition of urination (%)” value rises from 57% to 82%.

First: C[C@H]1CC[C@H](Oc2ccnc(C[C@](O)(C(=O)O)[C@@H](N)CSCC3CC3)c2)CC1 [Example 5]
Second: C=CCCOC[C@H](N)[C@](O)(Cc1cc(O[C@H]2CC[C@H](C)CC2)ccn1)C(=O)O [Example 88]
The “Inhibition of urination (%)” value of the first is higher: 90% for the first, 89% for the second.

First: CC(C)C[C@H](N)[C@](O)(Cc1cc(OC2CCCCCC2)ccn1)C(=O)O [Example 41]
Second: CC(C)C[C@H](N)[C@](O)(Cc1cc(OC2CCCCC2)ccn1)C(=O)O.Cl.Cl [Example 3, (2R,3S)-3-amino-2-{[4-(cyclohexyloxy)pyridin-2-yl]methyl}-2-hydroxy-5-methylhexanoic acid dihydrochloride]
The “Inhibition of urination (%)” value of the first is lower: 55% for the first, 59% for the second.

CC(C)C[C@H](N)[C@](O)(Cc1cc(OC2CCC3(CC2)CC3)ccn1)C(=O)O [Example 4, (2R,3S)-3-amino-2-hydroxy-5-methyl-2-{[4-(spiro[2.5]octa-6-yloxy)pyridin-2-yl]methyl}hexanoic acid] and CC(C)C[C@H](N)[C@](O)(Cc1cc(OCCCC2CC2)ccn1)C(=O)O [Example 29] are the same in “Inhibition of urination (%)” value: 93% for the first, 93% for the second.

Compared with CC(C)C[C@H](N)[C@](O)(Cc1nccc2oc(CCC3CC3)cc12)C(=O)O [Example 20, (2R,3S)-3-amino-2-{[2-(2-cyclopropylethyl)furo[3,2-c]pyridin-4-yl]methyl}-2-hydroxy-5-methylhexanoic acid], CC(C)C[C@H](N)[C@](O)(Cc1nccc2c1CC(CCC1CC1)O2)C(=O)O (some centres unmarked) [Example 83] is lower in “Inhibition of urination (%)” value: 94% for the first, 80% for the second.

Each compound was assayed on continuously hydrated rats. Conditions: groups with additional water loads; four hours after administration; FIG. 1.

In the case of CC(C)C[C@H](N)[C@](O)(Cc1cc(O[C@H]2CC[C@H](C)CC2)ccn1)C(=O)O (relative stereo) [EX-a], the “urine volume relative to the Vehicle group” value is reported as “approximately half amount of that of the Vehicle group”.
